Several values for one entry are separate records, joined by “and”; a condition that tells them apart may be missing. Identical values can stand only once. The list shows a part of the results, in another mix than the full data.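 A percent growth of 40 corresponds to 60% growth inhibition; 0 means no net growth; -100 means all cells died. Active threshold: below 10.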 Activity calls are given as the source filed them.
Columns and labels:
Test in all cases: NCI-60 one-dose screen, 48 h (100 = growth as untreated, 0 = no growth, -100 = all killed)
Conditions in all cases: 10 µM unless noted
[1] = test system: NCI-H23 lung
[2] = test system: NCI-H226 lung
[3] = test system: NCI-H322M lung
[4] = test system: HOP-62 NSCLC
[5] = test system: NCI-H460 lung
[6] = test system: HOP-92 NSCLC
[7] = test system: NCI-H522 lung
[8] = test system: A549/ATCC NSCLC
[9] = test system: 786-0 renal
[10] = test system: COLO 205 colon

Measured: growth

O=C(CCC(=O)Oc1c(Cl)cc([N+](=O)[O-])cc1[N+](=O)[O-])Oc1c(Cl)cc([N+](=O)[O-])cc1[N+](=O)[O-]
inactive: [1] 102% | [2] 101% | [3] 112% | [4] 96.5% | [5] 106% | [6] 99.1% | [7] 103% | [8] 105% | [9] 107% | [10] 116%

CN(C)C(=O)NP(=O)(N(C)C)N(C)C
inactive: [1] 97.6% | [2] 99.3% | [3] 112% | [4] 115% | [5] 113% | [6] 100% | [7] 107% | [8] 97% | [9] 106% | [10] 105%

O=[N+]([O-])c1cc(Cl)cc([N+](=O)[O-])c1O
inactive: [1] 111% | [2] 106% | [3] 110% | [4] 92.4% | [5] 104% | [6] 97.1% | [7] 89.5% | [8] 86.3% | [9] 100% | [10] 103%

Nc1cccc2c([As](=O)(O)O)cccc12
inactive: [1] 94.5% | [2] 97.4% | [3] 141% | [4] 81.4% | [5] 109% | [6] 112% | [7] 109% | [8] 108% | [9] 88.9% | [10] 119%

S=P(Cl)(N1CCCCCC1)N1CC1 (centres undefined)
inactive: [1] 102% | [2] 98.7% | [3] 105% | [4] 103% | [5] 108% | [6] 91.3% | [7] 97.5% | [8] 97.4% | [9] 101% | [10] 112%

CC(C)c1nc(Nc2ccccc2)n(P(=O)(N(C)C)N(C)C)n1
inactive: [1] 100% | [2] 94.4% | [3] 100% | [4] 105% | [5] 105% | [6] 83.7% | [7] 94.5% | [8] 90.8% | [9] 101%

CCOC(=O)Nc1ccc([As](=O)(O)O)c(O)c1
inactive: [1] 105% | [2] 106% | [3] 99.8% | [4] 112% | [5] 105% | [6] 97.9% | [7] 102% | [8] 106% | [9] 103% | [10] 104%

Cc1c([N+](=O)[O-])cc(C(=O)c2cc([N+](=O)[O-])cc([N+](=O)[O-])c2)cc1[N+](=O)[O-]
inactive: [1] 90.9% | [2] 101% | [3] 102% | [4] 114% | [5] 99.2% | [6] 109% | [7] 88.3% | [8] 99.1% | [9] 114% | [10] 90.7%

O=[N+]([O-])N1CCCS1(=O)=O
inactive: [1] 98.9% | [2] 103% | [3] 98.9% | [4] 96.1% | [5] 103% | [6] 91% | [7] 92.3% | [8] 96.2% | [9] 104% | [10] 107%

O=[N+]([O-])c1ccc(Nc2ccc(Oc3ccc([N+](=O)[O-])cc3[N+](=O)[O-])cc2)c([N+](=O)[O-])c1
inactive: [1] 75.2% | [2] 83.6% | [3] 97.5% | [4] 101% | [5] 94.4% | [6] 72.3% | [7] 47.9% | [8] 83.4% | [9] 81% | [10] 114%

Cc1cccc(Nc2c([N+](=O)[O-])cc([N+](=O)[O-])cc2[N+](=O)[O-])c1
inactive: [1] 103% | [2] 90.9% | [3] 104% | [4] 122% | [5] 95.9% | [6] 74.6% | [7] 50% | [8] 95.5% | [9] 107% | [10] 77.2%

O=C(C(=O)c1ccc([N+](=O)[O-])cc1[N+](=O)[O-])c1ccc([N+](=O)[O-])cc1[N+](=O)[O-]
inactive: [1] 93.8% | [2] 95.4% | [3] 103% | [4] 101% | [5] 105% | [6] 102% | [7] 60.8% | [8] 103% | [9] 106% | [10] 110%

O=[N+]([O-])c1cc(Cl)c(O)c([N+](=O)[O-])c1
inactive: [1] 111% | [2] 89.2% | [3] 108% | [4] 92.3% | [5] 105% | [6] 87.6% | [7] 98.7% | [8] 82% | [9] 99% | [10] 107%

COc1cc([N+](=O)[O-])c([N+](=O)[O-])cc1N
inactive: [1] 103% | [2] 100% | [3] 97.7% | [4] 97.5% | [5] 104% | [6] 74.8% | [7] 92.3% | [8] 97.1% | [9] 101% | [10] 97.8%

CCOP(=S)(OCC)SCCCl
inactive: [1] 100% | [2] 104% | [3] 108% | [4] 104% | [5] 108% | [6] 101% | [7] 88.5% | [8] 99% | [9] 101% | [10] 118%

COc1cc([N+](=O)[O-])c([N+](=O)[O-])cc1OC
inactive: [1] 102% and 100% | [2] 106% and 105% | [3] 101% and 97.4% | [4] 109% and 112% | [5] 105% | [6] 99.8% and 121% | [7] 86.9% and 107% | [8] 90.7% and 104% | [9] 104% and 106% | [10] 135% and 116%

Cn1c(COc2ccc([N+](=O)[O-])cc2[N+](=O)[O-])cnc1[N+](=O)[O-]
inactive: [1] 90.5% | [2] 91.5% | [3] 106% | [4] 90.3% | [5] 100% | [6] 102% | [7] 86.1% | [8] 98.7% | [9] 100% | [10] 102%

O=P(Cl)(N1CCCCCC1)N1CCCCCC1
inactive: [1] 103% | [2] 99.5% | [3] 109% | [4] 108% | [5] 109% | [6] 105% | [7] 102% | [8] 95.7% | [9] 105% | [10] 113%

C=NNc1ccc([N+](=O)[O-])cc1[N+](=O)[O-]
inactive: [1] 100% | [2] 88.1% | [3] 77.9% | [4] 102% | [5] 96.9% | [6] 83.8% | [7] 68.9% | [8] 92.1% | [9] 103% | [10] 99.4%

S=P1(S)SC(Nc2ccccc2)CN1c1ccccc1 (centres undefined)
inactive: [1] 95.6% | [2] 102% | [3] 101% | [4] 92.4% | [5] 101% | [6] 104% | [7] 88.1% | [8] 112% | [9] 109% | [10] 107%

CCOP(=S)(OCC)OCC
inactive: [1] 100% | [2] 105% | [3] 111% | [4] 97.5% | [5] 111% | [6] 97.9% | [7] 98.7% | [8] 107% | [9] 101% | [10] 113%

[N-]=[N+]=NS(=O)(=O)c1ccc([N+](=O)[O-])cc1
inactive: [1] 103% | [2] 95.9% | [3] 106% | [4] 121% | [5] 108% | [6] 75.7% | [7] 96.4% | [8] 96.7% | [9] 98.8% | [10] 131%

CCOC(=O)NC(c1ccccc1[N+](=O)[O-])P(=O)(O)Nc1ncn[nH]1 (centres undefined)
inactive: [1] 98.2% | [2] 84.2% | [3] 106% | [4] 94.5% | [5] 116% | [6] 99.9% | [7] 97.5% | [8] 120% | [9] 113% | [10] 116%

CCc1cc(O)c([N+](=O)[O-])c(C)c1[N+](=O)[O-]
inactive: [1] 102% | [2] 109% | [3] 126% | [4] 112% | [5] 113% | [6] 93.3% | [7] 103% | [8] 93.2% | [9] 116% | [10] 114%

CCOCCN(CCCl)Cc1ccccc1
inactive: [1] 104% | [2] 109% | [3] 102% | [4] 88.7% | [5] 110% | [6] 89.8% | [7] 92.2% | [8] 91.3% | [9] 102% | [10] 114%

O=C(c1ccc([N+](=O)[O-])cc1)N(CCCl)CCCl
inactive: [1] 117% | [2] 100% | [3] 98.6% | [4] 105% | [5] 112% | [6] 103% | [7] 97% | [8] 93.5% | [9] 106% | [10] 111%

O=P1(N(CCCl)CCCl)OCCC2CCCCN21 (centres undefined)
inactive: [1] 110% | [2] 106% | [3] 94.8% | [4] 103% | [5] 110% | [6] 92.9% | [7] 98.4% | [8] 102% | [9] 102% | [10] 107%

Source: PubChem BioAssay (NCI)
